Target: T1, hNav1.2 channels (Homo sapiens, UniProt Q99250)
T1 construct: expressed in transfected cells; host or cells: CHO-K1 (ATCC CCL-61)
Experiment: Patch-clamp (PatchXpress 7000A) on transfected CHO cells, hNav1.2
Format: cell-based
Details: n = 6, mean ± SEM, 2-H exposure limited to 3 min
Text: To test whether 2-H can act by blocking VGNaCs, the PatchXpress 7000A was used. Mammalian CHO (Chinese hamster ovary) transfected with ion hNav1.2 and hNav1.6 channels cDNAs (SCN2A and SCN8A genes) were exposed to 2-H under both tonic and phasic conditions. The mammalian CHO-K1 epithelial embryonic cell line (ATCC number CCL-61) from Cricetulus griseus was obtained from ATCC, Manassas, VA. CHO-K1 cells were transfected with either hNav1.2 or hNav1.6 channel cDNA (SCN2A and SCN8A genes, respectively) and were exposed to 2-H under both tonic and phasic conditions.
The effects of 2-H were evaluated on hNav1.2 at 0.73, 1.46, 2.19, and 2.92 mg/mL and on hNav1.6 channels at 0.1, 0.36, 0.73, and 1.46 mg/mL, with each concentration tested in at least six cells (n = 6). Cells were exposed to each concentration of 2-H and measurements of the inward current were obtained within the first 3 min of exposure. […] Since the PatchXpress has open cell chambers where the testing occurs, there is no way to hermetically seal the experiment.
Based on this analysis, we estimated the IC50.

Protein sequences, listed by entry. Tags and fused reporters are not part of them.
UniProt Q99250, whole entry: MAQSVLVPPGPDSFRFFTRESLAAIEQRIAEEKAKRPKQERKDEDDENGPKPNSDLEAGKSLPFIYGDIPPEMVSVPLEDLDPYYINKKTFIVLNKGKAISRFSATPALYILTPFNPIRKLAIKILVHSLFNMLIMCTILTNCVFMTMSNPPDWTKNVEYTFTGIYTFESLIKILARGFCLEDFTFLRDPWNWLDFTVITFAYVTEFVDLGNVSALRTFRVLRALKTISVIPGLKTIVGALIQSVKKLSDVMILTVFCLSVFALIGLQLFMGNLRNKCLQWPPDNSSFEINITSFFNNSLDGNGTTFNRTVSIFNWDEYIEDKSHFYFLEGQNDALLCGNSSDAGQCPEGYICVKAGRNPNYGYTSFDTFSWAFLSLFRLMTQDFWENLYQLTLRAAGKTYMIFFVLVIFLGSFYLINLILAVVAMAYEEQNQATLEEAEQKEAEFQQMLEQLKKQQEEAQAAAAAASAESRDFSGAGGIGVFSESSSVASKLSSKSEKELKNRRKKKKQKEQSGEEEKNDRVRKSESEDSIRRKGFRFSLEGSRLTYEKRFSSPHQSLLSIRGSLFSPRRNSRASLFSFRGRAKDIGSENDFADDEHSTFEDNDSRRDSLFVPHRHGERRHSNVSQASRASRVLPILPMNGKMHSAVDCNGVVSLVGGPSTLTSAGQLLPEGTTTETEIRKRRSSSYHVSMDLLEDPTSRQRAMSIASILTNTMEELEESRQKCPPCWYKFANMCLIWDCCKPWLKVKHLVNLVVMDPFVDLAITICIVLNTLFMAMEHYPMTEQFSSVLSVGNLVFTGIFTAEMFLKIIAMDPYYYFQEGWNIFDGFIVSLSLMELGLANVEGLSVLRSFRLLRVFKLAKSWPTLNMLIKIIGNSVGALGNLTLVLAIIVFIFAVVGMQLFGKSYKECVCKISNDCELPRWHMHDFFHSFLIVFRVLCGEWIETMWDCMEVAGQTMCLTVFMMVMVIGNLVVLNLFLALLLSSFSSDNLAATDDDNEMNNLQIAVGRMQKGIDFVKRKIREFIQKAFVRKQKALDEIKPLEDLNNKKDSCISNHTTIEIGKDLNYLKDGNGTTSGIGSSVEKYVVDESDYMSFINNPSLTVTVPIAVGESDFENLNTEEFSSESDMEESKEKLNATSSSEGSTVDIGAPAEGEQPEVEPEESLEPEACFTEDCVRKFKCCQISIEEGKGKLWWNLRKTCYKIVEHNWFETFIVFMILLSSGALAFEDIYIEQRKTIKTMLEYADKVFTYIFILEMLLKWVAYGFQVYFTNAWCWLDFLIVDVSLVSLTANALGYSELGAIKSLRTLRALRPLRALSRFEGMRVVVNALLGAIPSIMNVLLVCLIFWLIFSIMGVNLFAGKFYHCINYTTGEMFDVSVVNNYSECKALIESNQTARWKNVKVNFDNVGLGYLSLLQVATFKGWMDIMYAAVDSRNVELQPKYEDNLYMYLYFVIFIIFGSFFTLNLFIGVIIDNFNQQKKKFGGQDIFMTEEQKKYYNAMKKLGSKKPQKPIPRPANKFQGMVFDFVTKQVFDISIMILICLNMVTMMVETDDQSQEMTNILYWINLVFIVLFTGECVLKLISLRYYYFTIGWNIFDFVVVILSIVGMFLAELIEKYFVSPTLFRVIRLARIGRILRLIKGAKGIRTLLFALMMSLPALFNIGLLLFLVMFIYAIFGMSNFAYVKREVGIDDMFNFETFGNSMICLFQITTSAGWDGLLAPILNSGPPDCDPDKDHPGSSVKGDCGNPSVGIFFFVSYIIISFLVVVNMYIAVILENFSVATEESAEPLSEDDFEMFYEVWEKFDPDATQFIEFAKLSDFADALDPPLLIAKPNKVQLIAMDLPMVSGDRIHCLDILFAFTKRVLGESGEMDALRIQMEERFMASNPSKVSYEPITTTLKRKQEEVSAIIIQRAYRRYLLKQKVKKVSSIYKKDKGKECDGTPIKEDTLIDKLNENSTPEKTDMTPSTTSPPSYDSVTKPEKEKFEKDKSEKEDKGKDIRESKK

`CCN(CC)CC(=O)Nc1c(C)cccc1C` [lidocaine] was tested, and the IC50 (hNav1.2 IC50, Phasic Experiment) was 427 µM and the IC50 (hNav1.2 IC50, Tonic Experiment) was 1110 µM.

From PMC3472974, “The Bite of the Honeybee: 2-Heptanone Secreted from Honeybee Mandibles during a Bite Acts as a Local Anaesthetic in Insects and Mammals” (PLoS ONE, 2012)
